Assay results as given in patent publication US7622266B2, “Identification of a synthetic ligand for retinoic acid receptor beta” (Institut Pasteur, priority 1987, dated 2009).

Chains of the proteins cited; added tags and fusions are not shown. Residues count along the entry.
UniProt P10826, 1-448 isoform P10826-2: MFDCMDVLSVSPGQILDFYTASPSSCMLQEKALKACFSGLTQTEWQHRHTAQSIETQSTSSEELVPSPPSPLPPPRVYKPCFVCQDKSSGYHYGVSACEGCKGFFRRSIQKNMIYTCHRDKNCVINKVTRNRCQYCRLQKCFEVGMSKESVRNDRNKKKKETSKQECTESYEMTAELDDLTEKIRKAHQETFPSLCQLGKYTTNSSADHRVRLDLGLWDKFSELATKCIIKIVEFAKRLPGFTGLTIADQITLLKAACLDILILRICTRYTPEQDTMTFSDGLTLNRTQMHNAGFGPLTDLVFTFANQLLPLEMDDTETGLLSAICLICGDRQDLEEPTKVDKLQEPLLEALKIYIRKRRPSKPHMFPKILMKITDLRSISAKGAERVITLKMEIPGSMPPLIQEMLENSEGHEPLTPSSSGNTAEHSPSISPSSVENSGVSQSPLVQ

Target: T1, in vitro translated hap polypeptide (Homo sapiens, UniProt P10826)
T1 construct: made in house; host or cells: rabbit reticulocyte lysate (in vitro translation of T7 transcripts of pCOD20)
Test: Hormone-binding assay with in vitro translated hap polypeptide
Settings: reticulocyte lysate, overnight 0° C., Dextran coated charcoal
Description: The ability to express functional receptors in vitro from cloned c-erbA/steroid receptor genes led to the use of an in vitro translation assay to identify a putative hap ligand.
The coding region of hap was cloned into pTZ18 plasmid vector to allow in vitro transcription with the T7 RNA polymerase and subsequent translation in reticulocyte lysates. More particularly, ^35S-methionine-labelled products synthesized using T7 polymerase-catalysed RNA transcripts were separated on a 12% SDS-polyacrylamide gel, which was fluorographed. (DMSO-PPO). The lanes in FIG. 5 are as follows:
pCOD20 and pCOD14 were linearized with HindIII. Capped mRNA was generated using 5 ug of DNA, 5 uM rNTP, 25 mM DTT, 100 U RNAsin (Promega), 50 U T7 Pol (Genofit) in 40 mM Tris pH 8, 8mM MgCl2, 2 mM spermidine, 50 mM NaCl, in 100 ul at 37° C. Capping was performed by omitting GTP and adding CAP (m^7 G (5′) ppp (5′) G) (Pharmacia) for the 15 first minutes of the reaction.
After at least 2 h of incubation at 0° C., free was separated from bound by filtration through millipore HAWP 02500 filters using 10 ml of ice cold buffer. For testosterone, retinol, retinoic acid 10 ul of lysate were added to 45 lambda of 20 mM Tris pH 7.3, 1 mM EDTA, 50 mM NaCl, 2 mM beta-mercaptoethanol and […], […] or […] (81 ci/mmol; 60 Ci/mmol; 46 Ci/mmol; Amersham). […]

Q: For `CC1=C(/C=C/C(C)=C/C=C/C(C)=C/C(=O)O)C(C)(C)CCC1` [RA, All-trans-retinoic acid], which “binding of (3H)-labelled ligand to in vitro translated hap polypeptide” value is on record?
A: negative
